Test system: U937 cells
Test: Cytotoxicity in U937 cells, Cell Titer-Glo luminescent viability
Assay type: cell-based, human
Details: 24 hours of culture; ATP quantitation
Experimental: The concentration of TNF-alpha required to show measurable modulation of activity in the U937 human lung lymphoblast cell line was evaluated by quantitation of the ATP present, which signals the presence of metabolically active cells using Promega's Cell Titer-GJo® Luminescent Cell Viability assay.
The U937 cells were seeded in a clear polystyrene 96-well microculture plate (Corning® Costar® 96-well flat bottom plate, Cat. #3997) in a total volume of 90 μL/well. After 24 hours of incubation in a humidified incubator at 37° C. with 5% CO2 and 95% air, 5 μL of 20×, serially diluted TNF-alpha in growth medium was added to each well in duplicate (10 pt dose response, highest concentration 20 ng/mL). Additionally, 5 μL of 20×, diluted staurosporine in growth medium was added to each well in duplicate (concentration 1 nM).
After 24 hours of culture in the presence of test agents, the concentration of compound required to show measurable modulation of TNF-alpha activity in the U937 cell line as evaluated by quantitation of the ATP present. Percent cell growth was calculated relative to untreated control wells. All tests were performed in duplicate at each concentration level.
The EC50 value for the test agents was estimated using Prism 6.05 by curve-fitting the data using the following four parameter-logistic equation: […]

With “TNF-alpha: proinflammatory cytokine, test agent cytotoxic to U937 cells” the “IC50 against U937” value was 0.0951 ng/mL.

From US20160115247A1, “SINGLE DOMAIN ANTIBODIES DIRECTED AGAINST INTRACELLULAR ANTIGENS” (SINGH BIOTECHNOLOGY, LLC, priority 2014, published 2016)
